From publication PMC4191403

By UniProt entry, the sequences of proteins in these tests, tags left out.
UniProt P38398, whole entry: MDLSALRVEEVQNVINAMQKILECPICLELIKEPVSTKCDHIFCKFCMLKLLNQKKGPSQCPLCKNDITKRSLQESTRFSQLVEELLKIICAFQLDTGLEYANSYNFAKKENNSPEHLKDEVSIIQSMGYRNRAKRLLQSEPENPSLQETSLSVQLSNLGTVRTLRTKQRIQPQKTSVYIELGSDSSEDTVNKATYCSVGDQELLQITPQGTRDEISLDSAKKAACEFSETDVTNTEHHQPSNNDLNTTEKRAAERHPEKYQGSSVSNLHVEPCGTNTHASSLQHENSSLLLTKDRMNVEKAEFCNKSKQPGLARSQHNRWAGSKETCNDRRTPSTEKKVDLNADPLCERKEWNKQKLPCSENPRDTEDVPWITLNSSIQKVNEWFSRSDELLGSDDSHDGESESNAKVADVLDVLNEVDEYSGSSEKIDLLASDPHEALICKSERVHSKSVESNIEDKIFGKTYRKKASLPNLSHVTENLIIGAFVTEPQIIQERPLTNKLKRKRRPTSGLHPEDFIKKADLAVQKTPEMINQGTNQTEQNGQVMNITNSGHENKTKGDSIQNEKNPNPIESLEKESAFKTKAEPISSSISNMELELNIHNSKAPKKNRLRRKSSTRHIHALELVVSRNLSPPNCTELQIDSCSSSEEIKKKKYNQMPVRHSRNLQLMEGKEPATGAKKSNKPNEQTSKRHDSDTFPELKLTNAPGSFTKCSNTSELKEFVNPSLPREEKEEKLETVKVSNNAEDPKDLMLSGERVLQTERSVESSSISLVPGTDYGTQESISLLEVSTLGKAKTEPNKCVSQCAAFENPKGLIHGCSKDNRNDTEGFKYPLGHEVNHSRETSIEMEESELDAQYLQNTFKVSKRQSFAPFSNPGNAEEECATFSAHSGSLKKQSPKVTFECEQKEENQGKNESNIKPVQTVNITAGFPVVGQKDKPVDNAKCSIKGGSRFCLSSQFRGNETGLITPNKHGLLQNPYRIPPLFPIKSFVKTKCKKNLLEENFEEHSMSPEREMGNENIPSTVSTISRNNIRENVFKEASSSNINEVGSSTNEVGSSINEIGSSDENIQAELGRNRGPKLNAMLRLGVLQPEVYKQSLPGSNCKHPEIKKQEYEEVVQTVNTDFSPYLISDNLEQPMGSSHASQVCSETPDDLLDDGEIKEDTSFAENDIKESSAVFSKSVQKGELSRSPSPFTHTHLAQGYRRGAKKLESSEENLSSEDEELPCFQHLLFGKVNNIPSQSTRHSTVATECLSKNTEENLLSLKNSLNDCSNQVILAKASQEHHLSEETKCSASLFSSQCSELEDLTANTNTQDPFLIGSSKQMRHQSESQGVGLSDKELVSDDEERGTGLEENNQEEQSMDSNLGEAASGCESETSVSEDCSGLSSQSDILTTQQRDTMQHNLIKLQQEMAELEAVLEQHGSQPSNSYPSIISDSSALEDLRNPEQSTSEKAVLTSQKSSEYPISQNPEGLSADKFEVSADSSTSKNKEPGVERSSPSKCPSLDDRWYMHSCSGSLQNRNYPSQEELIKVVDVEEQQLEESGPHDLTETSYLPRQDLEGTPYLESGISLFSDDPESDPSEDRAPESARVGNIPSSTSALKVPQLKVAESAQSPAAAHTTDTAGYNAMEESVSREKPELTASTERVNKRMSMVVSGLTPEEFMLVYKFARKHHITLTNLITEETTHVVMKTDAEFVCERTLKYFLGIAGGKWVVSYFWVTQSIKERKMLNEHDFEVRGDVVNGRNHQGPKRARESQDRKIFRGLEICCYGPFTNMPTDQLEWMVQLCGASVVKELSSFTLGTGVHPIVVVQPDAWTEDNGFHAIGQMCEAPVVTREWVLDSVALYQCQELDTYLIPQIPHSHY

Biological target: BRCA1 (Breast Cancer 1, early onset), endogenous in HeLa cells (human (endogenous in HeLa)) (UniProt P38398)
Experiment: co-IP; endogenous proteins from HeLa lysate (50 mM Tris pH 7.5, 250 mM NaCl, 1 mM EDTA, 0.1% NP-40), antibody on protein G agarose, 4°C overnight; reciprocal IPs; cells mock or 10 Gy irradiated, with or without 100 μg/ml ethidium, asynchronous or synchronised in S or non-S phase

DNA-dependent protein kinase catalytic subunit (DNA-PKcs), endogenous in HeLa cells (a stretch of the chain, letters omitted) (natural protein)
decrease of the association in non-S phase compared to S phase: 82%
